The numbers were not newly measured in paper PMC8015229, “Focus on Human Monoamine Transporter Selectivity. New Human DAT and NET Models, Experimental Validation, and SERT Affinity Exploration” (ACS Chemical Neuroscience, 2020), which cites them from elsewhere.

Amino acid sequences for entries named in this document (tags omitted).
UniProt P31645, whole entry: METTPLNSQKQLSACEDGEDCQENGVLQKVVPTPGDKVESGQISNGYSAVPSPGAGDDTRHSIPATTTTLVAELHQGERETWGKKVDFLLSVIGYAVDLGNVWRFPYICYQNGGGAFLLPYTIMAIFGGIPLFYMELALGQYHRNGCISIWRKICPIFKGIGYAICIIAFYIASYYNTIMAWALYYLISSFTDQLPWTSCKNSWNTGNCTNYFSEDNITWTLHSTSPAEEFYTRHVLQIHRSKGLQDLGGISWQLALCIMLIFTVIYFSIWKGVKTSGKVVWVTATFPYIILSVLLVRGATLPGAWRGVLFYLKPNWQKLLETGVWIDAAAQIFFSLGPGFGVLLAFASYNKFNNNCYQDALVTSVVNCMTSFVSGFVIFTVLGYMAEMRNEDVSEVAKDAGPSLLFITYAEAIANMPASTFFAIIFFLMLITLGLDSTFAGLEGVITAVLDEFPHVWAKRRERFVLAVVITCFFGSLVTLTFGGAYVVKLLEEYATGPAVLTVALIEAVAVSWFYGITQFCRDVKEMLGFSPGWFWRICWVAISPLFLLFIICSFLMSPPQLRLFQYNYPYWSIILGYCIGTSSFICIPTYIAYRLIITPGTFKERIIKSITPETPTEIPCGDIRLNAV

In the data set the target is SERT (Homo sapiens, UniProt P31645). To be noted: cited from earlier work.

In the case of `COC(=O)[C@H]1[C@@H](c2ccc(Cl)cc2)C[C@@H]2CC[C@H]1N2C` [compound 9, RTI-31], the “SERT pKi exp” value is listed as 7.7.
